What was measured:
[1] = system: Jak2V617F phosphorylation (P-Jak2) in HEL cells; assay: Western blot of phospho-Jak2 in HEL cells; format: cell-based, human; settings: 0.5, 1 or 5 μM, 3 hrs
[2] = system: Jak3A572V phosphorylation (P-Jak3) in CMK cells; assay: Western blot of phospho-Jak3 in CMK cells; format: cell-based; settings: 0.5, 1 or 5 μM, 3 hrs

C[C@@H]1CCN(C(=O)CC#N)C[C@@H]1N(C)c1ncnc2[nH]ccc12 [CP690,550, Tofacitinib]
effect on phosphorylation of Jak2 [1]: Hyper-phosphorylation of Jak2V617F | effect on phosphorylation of Jak3A572V [2]: hyper-phosphorylation of Jak3A572V

Source: publication PMC3822589 (Journal of Cellular and Molecular Medicine, 2013)
